Source: patent US5635477A, “Cyclic compounds useful as inhibitors of platelet glycoprotein IIB/IIIA” (The DuPont Merck Pharmaceutical Company, priority 1995, dated 1997)

By UniProt entry, the sequences of proteins in these tests, tags left out. Residues count along the entry.
UniProt P05106, 27-788 limits assumed: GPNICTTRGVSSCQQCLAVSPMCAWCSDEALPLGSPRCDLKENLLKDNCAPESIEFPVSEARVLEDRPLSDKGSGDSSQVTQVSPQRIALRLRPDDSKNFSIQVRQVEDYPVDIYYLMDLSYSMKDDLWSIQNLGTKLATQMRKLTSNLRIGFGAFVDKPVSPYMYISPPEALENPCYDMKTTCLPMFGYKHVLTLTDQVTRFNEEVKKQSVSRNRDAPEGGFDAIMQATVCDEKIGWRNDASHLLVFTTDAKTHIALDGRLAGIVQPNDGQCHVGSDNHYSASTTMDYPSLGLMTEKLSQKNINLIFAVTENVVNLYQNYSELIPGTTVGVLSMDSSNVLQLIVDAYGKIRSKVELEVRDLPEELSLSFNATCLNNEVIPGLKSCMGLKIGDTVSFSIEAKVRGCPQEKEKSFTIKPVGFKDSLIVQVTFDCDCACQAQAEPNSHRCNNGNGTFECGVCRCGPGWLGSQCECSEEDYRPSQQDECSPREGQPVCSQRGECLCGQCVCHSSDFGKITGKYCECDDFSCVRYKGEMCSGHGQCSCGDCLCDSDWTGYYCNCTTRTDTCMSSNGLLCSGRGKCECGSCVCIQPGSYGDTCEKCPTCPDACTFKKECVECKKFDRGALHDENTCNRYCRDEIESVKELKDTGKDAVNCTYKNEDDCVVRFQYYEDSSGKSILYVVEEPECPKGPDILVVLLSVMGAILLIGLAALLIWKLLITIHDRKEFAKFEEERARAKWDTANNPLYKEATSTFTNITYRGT
UniProt P08514, 32-1039 limits assumed: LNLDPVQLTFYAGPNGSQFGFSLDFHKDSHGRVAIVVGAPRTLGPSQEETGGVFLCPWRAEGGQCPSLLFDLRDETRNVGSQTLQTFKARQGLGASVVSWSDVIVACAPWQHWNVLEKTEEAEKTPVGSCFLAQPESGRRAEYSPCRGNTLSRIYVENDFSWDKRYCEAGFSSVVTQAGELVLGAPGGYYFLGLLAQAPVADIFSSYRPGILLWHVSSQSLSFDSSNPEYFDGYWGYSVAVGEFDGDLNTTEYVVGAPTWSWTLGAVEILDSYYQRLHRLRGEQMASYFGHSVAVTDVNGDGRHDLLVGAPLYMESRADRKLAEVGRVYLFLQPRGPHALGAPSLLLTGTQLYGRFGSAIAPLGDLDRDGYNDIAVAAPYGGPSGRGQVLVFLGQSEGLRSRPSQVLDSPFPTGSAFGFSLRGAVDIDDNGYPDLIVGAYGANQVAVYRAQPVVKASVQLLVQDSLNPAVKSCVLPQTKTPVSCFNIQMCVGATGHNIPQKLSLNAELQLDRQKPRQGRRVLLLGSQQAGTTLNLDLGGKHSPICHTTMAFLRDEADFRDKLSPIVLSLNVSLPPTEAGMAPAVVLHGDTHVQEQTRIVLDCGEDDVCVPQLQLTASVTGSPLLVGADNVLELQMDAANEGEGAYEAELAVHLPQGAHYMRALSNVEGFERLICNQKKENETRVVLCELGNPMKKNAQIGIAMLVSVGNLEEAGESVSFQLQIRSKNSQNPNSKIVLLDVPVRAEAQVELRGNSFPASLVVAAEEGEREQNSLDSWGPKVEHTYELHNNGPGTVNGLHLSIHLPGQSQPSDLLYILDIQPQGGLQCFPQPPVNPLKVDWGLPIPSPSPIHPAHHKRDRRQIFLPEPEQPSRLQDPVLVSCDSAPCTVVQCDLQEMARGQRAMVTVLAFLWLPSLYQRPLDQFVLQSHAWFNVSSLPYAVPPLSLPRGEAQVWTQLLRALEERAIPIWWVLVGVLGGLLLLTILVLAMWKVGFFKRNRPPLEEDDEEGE

Biological target: agonist-induced platelet aggregation (Homo sapiens, UniProt P05106+P08514)
Assay: Platelet Aggregation Assay
Conditions: read-out: IC50 value in the platelet aggregation assay, human PRP

| Compound | IC50 |
| --- | --- |
| CN1C(=O)C(CCCCNC(=O)c2ccccc2C(=O)c2ccccc2)NC(=O)c2cccc(c2)CNC(=O)[C@H](CC(=O)O)NC(=O)CNC(=O)[C@@H]1CCCNC(=N)N (some centres unmarked) | 1 to 10 µM |
| CN(C)c1cccc2c(S(=O)(=O)NCCCCC3NC(=O)c4cccc(c4)CNC(=O)[C@H](CC(=O)O)NC(=O)CNC(=O)[C@H](CCCNC(=N)N)N(C)C3=O)cccc12 (some centres unmarked) | < 1 µM |
| CN1C(=O)C(CCCCNC(=O)CNC(=O)OC(C)(C)C)NC(=O)c2cccc(c2)CNC(=O)[C@H](CC(=O)O)NC(=O)CNC(=O)[C@@H]1CCCNC(=N)N (some centres unmarked) | 1 to 10 µM |
| CN1C(=O)C(CCCCNC(=O)C(N)Cc2c[nH]c3ccccc23)NC(=O)c2cccc(c2)CNC(=O)[C@H](CC(=O)O)NC(=O)CNC(=O)[C@@H]1CCCNC(=N)N (some centres unmarked) | < 1 µM |
| CN1C(=O)C(CCCCNC(=O)c2ccccc2Cc2ccccc2)NC(=O)c2cccc(c2)CNC(=O)[C@H](CC(=O)O)NC(=O)CNC(=O)[C@@H]1CCCNC(=N)N (some centres unmarked) | < 1 µM |
| CN1C(=O)C(CCCCNC(=O)c2ccc(C(=O)c3ccccc3)cc2)NC(=O)c2cccc(c2)CNC(=O)[C@H](CC(=O)O)NC(=O)CNC(=O)[C@@H]1CCCNC(=N)N (some centres unmarked) | < 1 µM |
| CN1C(=O)C(CCCCNC(=O)c2ccc(N=[N+]=[N-])cc2)NC(=O)c2cccc(c2)CNC(=O)[C@H](CC(=O)O)NC(=O)CNC(=O)[C@@H]1CCCNC(=N)N (some centres unmarked) | < 1 µM |
| CN1C(=O)C(CCCCNC(=O)CN)NC(=O)c2cccc(c2)CNC(=O)[C@H](CC(=O)O)NC(=O)CNC(=O)[C@@H]1CCCNC(=N)N (some centres unmarked) | < 1 µM |

The remaining lines, values ahead:

| IC50 | Compound |
| --- | --- |
| < 1 µM | CC(=O)c1ccc(C(=O)NCCCCC2NC(=O)c3cccc(c3)CNC(=O)[C@H](CC(=O)O)NC(=O)CNC(=O)[C@H](CCCNC(=N)N)N(C)C2=O)cc1 (some centres unmarked) |
| < 1 µM | CN1C(=O)C(CCCCNC(=O)c2ccc(-c3ccccc3)cc2)NC(=O)c2cccc(c2)CNC(=O)[C@H](CC(=O)O)NC(=O)CNC(=O)[C@@H]1CCCNC(=N)N (some centres unmarked) |
| < 1 µM | CN1C(=O)C(CCCCNC(=O)c2cccc(C(=O)c3ccccc3)c2)NC(=O)c2cccc(c2)CNC(=O)[C@H](CC(=O)O)NC(=O)CNC(=O)[C@@H]1CCCNC(=N)N (some centres unmarked) |
